Data taken from patent US20140081001A1.

Key:
[1] = biological target: IgG from rabbit serum (rabbit); assay: affinity chromatography, DAP mixed with 115 uL rabbit serum, then biotin-agarose, elution with glycine buffer; A280 (Example 7c)
[2] = biological target: Rabbit IgG fraction, code X0903 (DAKO A/S) (rabbit); assay: affinity chromatography, DAP and 2 mg rabbit IgG mixed in solution, then biotin-agarose; A280 (Example 7a)
[3] = biological target: Rabbit IgG fraction, code X0903 (DAKO A/S) (rabbit); assay: affinity chromatography, DAP and 2 mg rabbit IgG mixed in solution, then biotin-agarose, elution at pH 2.8; A280 (Example 7a)
[4] = biological target: IgG from rabbit serum (rabbit); assay: affinity chromatography, 115 uL rabbit serum loaded on DAP held on biotin-agarose, elution at pH 2.8; A280 (Example 7d)
[5] = biological target: Rabbit IgG fraction, code X0903 (DAKO A/S) (rabbit); assay: affinity chromatography, 2 mg rabbit IgG loaded on DAP held on biotin-agarose, elution at pH 2.8; A280 (Example 7b)
[6] = biological target: Rabbit IgG fraction, code X0903 (DAKO A/S) (rabbit); assay: affinity chromatography, 2 mg rabbit IgG loaded on DAP held on biotin-agarose; A280 (Example 7b)
[7] = biological target: Rabbit IgG fraction, code X0903 (DAKO A/S) (rabbit); assay: affinity chromatography, free DAP mixed with 3.2 mg rabbit IgG, then biotin-agarose, elution at pH 3.5; A280 (Example 7e)
[8] = biological target: Rabbit IgG fraction, code X0903 (DAKO A/S) (rabbit); assay: affinity chromatography, 3.2 mg rabbit IgG loaded on immobilised DAP, 1. reuse, elution at pH 3.5; A280 (Example 7f)
[9] = biological target: Rabbit IgG fraction, code X0903 (DAKO A/S) (rabbit); assay: affinity chromatography, 3.2 mg rabbit IgG loaded on immobilised DAP, 4. reuse, elution at pH 3.5; A280 (Example 7f)
[10] = biological target: Rabbit IgG fraction, code X0903 (DAKO A/S) (rabbit); assay: affinity chromatography on DAP held on biotin-agarose, 0.3 mL of 12 uM IgG injected, A280
[11] = biological target: Rabbit IgG fraction, code X0903 (DAKO A/S) (rabbit); assay: affinity chromatography, 3.2 mg rabbit IgG loaded on immobilised DAP, mean of four cycles
[12] = biological target: Rabbit IgG fraction, code X0903 (DAKO A/S) (rabbit); assay: affinity chromatography on DAP held on biotin-agarose, 0.15 mL of 12 uM IgG injected, A280
[13] = biological target: Rabbit IgG fraction, code X0903 (DAKO A/S) (rabbit); assay: affinity chromatography on DAP held on biotin-agarose, 0.45 mL of 12 uM IgG injected, A280
[14] = biological target: Rabbit IgG fraction, code X0903 (DAKO A/S) (rabbit); assay: affinity chromatography on DAP held on biotin-agarose, 0.6 mL of 12 uM IgG injected, A280
[15] = biological target: Rabbit IgG fraction, code X0903 (DAKO A/S) (rabbit); assay: affinity chromatography, 3.2 mg rabbit IgG loaded on immobilised DAP, 3. reuse, elution at pH 3.5; A280 (Example 7f)
[16] = biological target: Rabbit IgG fraction, code X0903 (DAKO A/S) (rabbit); assay: affinity chromatography, 3.2 mg rabbit IgG loaded on immobilised DAP, 2. reuse, elution at pH 3.5; A280 (Example 7f)

Substance | Recovered IgG (mg) from serum [1] [mg] | Flow through [2] [%] | Recovered [3] [%] | Recovered IgG (mg) from serum [4] [mg] | Recovered [5] [%] | Flow through [6] [%] | IgG Recovered [7] [mg] | IgG Recovered [8] [mg] | IgG Recovered [9] [mg] | Peak height eluate [10] [mAU] | Peak height of flow through [10] [mAU] | IgG recovered on average in four repeated cycles [11] [mg] | Peak height eluate [12] [mAU] | Peak height of flow through [12] [mAU] | Peak height eluate [13] [mAU] | Peak height of flow through [13] [mAU] | Peak height eluate [14] [mAU] | Peak height of flow through [14] [mAU] | IgG Recovered [15] [mg] | IgG Recovered [16] [mg]
DAP molecule [Protein A-Neutravidin] (from UniProt P38507 37-477; P02701 25-152) | 0.31 | 74 | 26 | 0.18 | 14 | 86 |  |  |  |  |  |  |  |  |  |  |  |  |  | 
DAP molecule [Protein A-Avidin] (from UniProt P38507 37-477; P02701 25-152) |  |  |  |  |  |  | 1.2 | 0.3 | 0.3 | 120 | 61 | 0.35 | 109 | 14 | 124 | 116 | 126 | 154 | 0.4 | 0.4
